Here are results for 29 molecules from ChEMBL document CHEMBL4414612, “Synthesis and Pharmacological Evaluation of 1-Phenyl-3-Thiophenylurea Derivatives as Cannabinoid Type-1 Receptor Allosteric Modulators” (J Med Chem, 2019).

Sequences of proteins named here, by UniProt entry; tags and fusion partners are left off.
UniProt P21554, whole entry: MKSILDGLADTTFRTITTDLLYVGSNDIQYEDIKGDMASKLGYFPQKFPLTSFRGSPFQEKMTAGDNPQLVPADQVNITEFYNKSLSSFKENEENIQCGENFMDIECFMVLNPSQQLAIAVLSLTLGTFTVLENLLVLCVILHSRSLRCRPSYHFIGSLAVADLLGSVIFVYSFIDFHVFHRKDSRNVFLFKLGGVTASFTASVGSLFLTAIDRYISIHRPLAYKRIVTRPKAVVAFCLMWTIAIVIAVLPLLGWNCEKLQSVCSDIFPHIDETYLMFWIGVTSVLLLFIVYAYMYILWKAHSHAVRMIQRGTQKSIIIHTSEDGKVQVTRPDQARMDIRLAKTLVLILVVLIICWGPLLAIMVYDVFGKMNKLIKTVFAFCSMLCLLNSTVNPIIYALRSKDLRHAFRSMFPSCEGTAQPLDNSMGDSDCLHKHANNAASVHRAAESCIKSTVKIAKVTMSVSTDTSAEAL

Some results are limits rather than exact numbers.

One experiment deals with T1, Cannabinoid receptor 1 (Homo sapiens, UniProt P21554). Nature of the experiment: Allosteric modulator activity at human CB1 receptor expressed in HEK293 cells assessed as suppression of 100 nM CP55,940-induced reduction in forskolin-stimulated cAMP production pre-incubated for 25 mins before forskolin and CP55,940 addition and measured after 22 mins by BRET CAMYEL cAMP assay. In kind it is functional, cell-based.
For orientation: IC50 means the concentration that gives 50% inhibition. On to `O=C(Nc1ccc(Cl)cc1)Nc1cccc(-c2cccc(N3CCCC3)n2)c1`, for which the IC50 was 2620 nM.

The target in another experiment is T1, Cannabinoid receptor 1. Nature of the experiment: Allosteric modulator activity at human CB1 receptor expressed in HEK293 cell membranes assessed as suppression of 100 nM CP55,940-induced [35S]GTPgammaS binding incubated for 60 mins by scintillation counting method. In kind it is functional. Background: GTPγS resists hydrolysis and so accumulates on activated G proteins.
`O=C(Nc1ccc(Cl)cc1)Nc1cccc(-c2cccc(N3CCCC3)n2)c1`: the IC50 amounted to 455 nM.

In a further experiment the target is T1, Cannabinoid receptor 1. Nature of the experiment: Agonist activity at human CB1 receptor expressed in CHO-RD-HGA16 cells co-expressing Galpha16 assessed as suppression stimulation of calcium mobilization incubated for 45 mins by Calcium 5 dye based FLIPR assay relative to CP55,940. Format: functional, cell-based.
The Emax is the maximal effect, on the per cent scale that the assay sets. For the molecule `O=C(Nc1ccc(Cl)cc1)Nc1ccc(-c2cccc(Cl)c2)s1`, the Emax is less than 30%.

With `O=C(Nc1ccc(Cl)cc1)Nc1ccc(-c2ccccc2Cl)s1`, the Emax is less than 30%.

As for `O=C(Nc1ccc(Cl)cc1)N[C@@H]1CCCN(c2ccccc2)C1`, the Emax was less than 30%.

For the molecule `CC(=O)c1cccc(-c2ccc(NC(=O)Nc3ccc(Cl)cc3)s2)c1`, the Emax was less than 30%.

For the molecule `COc1ccc(-c2ccc(NC(=O)Nc3ccc(Cl)cc3)s2)cc1`, the Emax is less than 30%.

On to `O=C(Nc1ccc(Cl)cc1)Nc1ccc(-c2ccc(F)cc2F)s1`, for which the Emax was less than 30%.

Regarding `O=C(Nc1ccc(Cl)cc1)Nc1ccc(-c2ccc(F)cc2)s1`, the maximal response (Emax) is less than 30%.

Turning to `O=C(Nc1ccc(Cl)cc1)Nc1ccc(-c2cc(Cl)cc(Cl)c2)s1`, the maximal effect (Emax) is less than 30%.

Take `O=C(Nc1ccc(Cl)cc1)Nc1cc(-c2ccccc2)ccn1`: the Emax was less than 30%.

With `Cc1cccc(-c2ccc(NC(=O)Nc3ccc(Cl)cc3)s2)c1`, the Emax was less than 30%.

As to `O=C(Nc1ccc(Cl)cc1)Nc1ccc(-c2cccnc2)s1`, the Emax is less than 30%.

For `O=C(Nc1ccc(Cl)cc1)Nc1ccc(-c2ccncc2)s1`, the Emax was less than 30%.

Regarding `O=C(Nc1ccc(Cl)cc1)Nc1cc(-c2ccccc2)cs1`, the Emax is less than 30%.

`O=C(Nc1ccc(Cl)cc1)Nc1ccc(-c2cccc(F)c2)s1`: the Emax was less than 30%.

Take `COc1cccc(-c2ccc(NC(=O)Nc3ccc(Cl)cc3)s2)c1`: the Emax was less than 30%.

`O=C(Nc1ccc(Cl)cc1)Nc1csc(-c2ccccc2)c1`: the Emax was less than 30%.

As for `COC(=O)c1cccc(-c2ccc(NC(=O)Nc3ccc(Cl)cc3)s2)c1`, the Emax was less than 30%.

In the case of `O=C(Nc1ccc(Cl)cc1)Nc1ncc(-c2ccccc2)s1`, the Emax was less than 30%.

For the molecule `O=C(Nc1ccc(Cl)cc1)Nc1ccnc(-c2ccccc2)c1`, the Emax is less than 30%.

Consider `COc1ccccc1-c1ccc(NC(=O)Nc2ccc(Cl)cc2)s1`, for which the Emax is less than 30%.

For `O=C(Nc1ccc(Cl)cc1)Nc1ccc(-c2ccc(Cl)cc2)s1`, the maximum response (Emax) was less than 30%.

In the case of `O=C(Nc1ccc(Cl)cc1)Nc1ccc(-c2ccc(Cl)c(Cl)c2)s1`, the Emax is less than 30%.

Consider `O=C(Nc1ccc(Cl)cc1)Nc1cccc(-c2ccccc2)n1`, for which the Emax was less than 30%.

For the molecule `CS(=O)(=O)c1cccc(-c2ccc(NC(=O)Nc3ccc(Cl)cc3)s2)c1`, the Emax is less than 30%.

In the case of `O=C(Nc1ccc(Cl)cc1)Nc1ccc(-c2ccccc2)s1`, the Emax was less than 30%.

With `COc1ccc(-c2cccc(N3CCCC3)n2)cc1NC(=O)Nc1ccc(Cl)cc1`, the Emax is less than 30%.

Consider `CN(C)c1cccc(-c2ccc(NC(=O)Nc3ccc(Cl)cc3)s2)c1`, for which the Emax is less than 30%.

Regarding `O=C(Nc1ccc(Cl)cc1)Nc1cncc(-c2ccccc2)c1`, the Emax was less than 30%.
